Data reported in patent US11123338B2, “C-met modulator pharmaceutical compositions” (Exelixis, Inc., priority 2010, dated 2021).

Test: Water solubility of free base and salts from the salt screen

Q: Which Solubility (10 mg solids per mL water) does the source give for Malonate here?
A: 3 µg/mL

Q: And the “Solubility (remark in words)” value (salt screen)?
A: Crystalline salt, low solubility
